Reference: patent publication US8021570B2, “β-peptide lyotropic liquid crystals and methods of manufacture and use thereof” (Wisconsin Alumni Research Foundation, priority 2006, dated 2011)

Experiment: Optical microscopy of aqueous β-peptide solutions between crossed polarizing filters (birefringence = LC phase formation)
Format: physicochemical
Conditions: aqueous solution, room temperature
Text: The inventors used optical microscopy for initial evaluation of aqueous solutions of 1-5. For each β-peptide, aqueous solutions of varying concentration were drawn into microcapillaries and examined between crossed polarizing filters at room temperature (FIGS. 1 and 3). In such experiments, the observation of birefringence is taken as evidence of LC phase formation. […] Increasing β-peptide length by one triad, to generate 3, led to LC behavior at lower concentrations, as shown by the image obtained for a 10 wt % sample (61 mM, FIG. 1C). […]
β-Peptides were weighed into glass vials, diluted to the desired concentration with water, and left on an oscillatory shaker overnight to ensure dissolution. β-peptide solutions were then drawn into a 2 μL microcapillary (Drummond), and the ends were sealed with a high viscosity vacuum grease (Dow-Corning) Microcapillaries were placed on a glass slide and imaged on an Olympus BX-60 microscope (Tokyo, Japan) in transmission mode between crossed polarizing filters using a digital camera (Olympus C2020 Zoom). […] Temperature was recorded from a thermostat but was not further calibrated.
Materials and Methods • Materials. […] To assess the upper limit of concentration, a 1 μL droplet of a concentrated peptide solution was allowed to slowly evaporate while being monitored for birefringence. […]

Question: With “biotin-β^3-hGly-β^3-hTyr-(ACHC-ACHC-β^3-hLys)3 [entry 14]” as the substance, how does the “concentration at which birefringence / LC phase formation is observed” value read?
Answer: 6 wt %
